Assay results published in US7741286B2, “Long lasting anti-angiogenic peptides” (ConjuChem Biotechnologies Inc., priority 1999, dated 2010).

Assay: Stability of MPA-K5-HSA conjugate in plasma (HPLC-MS of intact conjugate and albumin forms)
Assay type: in vitro ADME
Conditions: 37° in human plasma
Experimental: MPA-K5 (modified K5 peptide) was incubated with 25% HSA for 2 hours at room temperature. The MPA-K5-HSA conjugate was then incubated at 37° in the presence of human plasma at a final concentration of 160 μm. After the specific incubation period (0, 4 and 24 hours) an aliquot of 100 μl was withdrawn and filtered through a 0.22 μm filter. The presence of intact conjugate was assayed by HPLC-MS.
The column was an Aquapore RP-300, 250×4.6 mm, 7μ particle size. The column temperature was 50° C. The mobile phase A was 0.1% TFA/water. The mobile phase B was 0.1% TFA/acetonitrile. The injection volume was 1 μl. The gradient was as follows: […]
The peptide was detected at 214 mm for quantification. For mass spectral analysis of the peptide, the ionization mode was API-electrospray at 1280 to 1500 m/z range, gain 1.0, fragmentor 125V, threshold 100, stepsize 0.40. The gas temperature was 350° C. the drying gas was 13.0 l/min. The pressure was 60 psi and the Vcap was 6000V.
Approximately 33% of circulating albumin in the bloodstream is mercaptalbumin (SH-albumin) which is not blocked by endogenous sulfhydryl compounds such as cysteine or glutathione and is therefore available for reaction with maleimido groups. The remaining 66% of the circulating albumin is capped or blocked by sulfhydryl compounds. The HPLC MS assay permits the identification of capped-HSA, SH-albumin and K5-MPA-albumin. The MPA covalently bonds to the free thiol on the albumin. The stability of the three forms of albumin in plasma is presented below.

Substance	% SH-Albumin (0 hrs) [%]	% SH-Albumin (4 hrs) [%]	% SH-Albumin (24 hrs) [%]	% capped HSA (0 hrs) [%]	% capped HSA (4 hrs) [%]	% capped HSA (24 hrs) [%]
SH-Albumin: mercaptalbumin, not blocked by endogenous sulfhydryl compounds, available for reaction with maleimido groups	16.6	16.05	16.8			
capped HSA: circulating albumin capped or blocked by sulfhydryl compounds such as cysteine or glutathione				61.3	64.6	63
